Laboratory results reported in patent US20140228682A1, “IMAGING PROBES, IMAGING SYSTEMS, AND METHODS OF IMAGING” (priority 2013, published 2014).

Key:
cartilage = assay: small animal PET imaging of cartilage / osteoarthritis joints in mice
Protocol: The mice were injected with ^89Zirconium oxalate through tail vein and then imaged by small animal PET.
The mice were injected with tracer through tail vein and then imaged at 5 days post-injection by small animal PET (left two columns of images) and optical imaging instrument (in vivo and ex vivo) (right two columns images).

[1] = mice; 100-200 times the contemplated dose per kilogram in man

## ^89Zr oxalate
cartilage
  time needed for the probe to accumulate in cartilage: about five
[1]
  ill-effects observed in animals: No ill-effects
  tolerability: well tolerated
